Chains of the proteins cited; added tags and fusions are not shown. Residues count along the entry.
UniProt P33681, 35-242 limits assumed: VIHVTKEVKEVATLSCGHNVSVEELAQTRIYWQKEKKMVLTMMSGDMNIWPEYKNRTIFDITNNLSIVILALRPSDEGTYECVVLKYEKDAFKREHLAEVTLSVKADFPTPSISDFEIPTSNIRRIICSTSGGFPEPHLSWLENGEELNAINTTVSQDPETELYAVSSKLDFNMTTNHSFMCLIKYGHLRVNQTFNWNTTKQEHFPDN

The assay addresses B7-1/CD28 (Homo sapiens, UniProt P33681). The assay is described as follows: CD28/B7-1 ELISA (B7-1/CD28 binding inhibition). The settings on record: read-out: B7-1/CD28 Inhibition IC50; CD28-Fc coated wells; B7-1-Fc-biotin/streptavidin-alkaline phosphatase detection complex; 1% DMSO. On the procedure:
Evaluation of B7-1/CD28 Binding Inhibition for Test Compounds
Wells are coated with 300 ng CD28-Fc in carbonate buffer (pH 9.4) overnight at 4° C., blocked with 1% bovine serum albumin in tris-buffered saline (TBS) for 1 h at 22° C. and washed 3 times in TBS prior to assay. The detection complex is formed as follows: B7-1-Fc-biotin, prepared using NHS-LC-biotin (Pierce #21335) according to the manufacturers instructions (4.1 moles biotinimole Fc), is added at 0.8 ug/ml to streptavidin-alkaline phosphatase (Caltag Sa1008) at 1:1000 in TBS. A solution of test compound in dimethylsulfoxide (1% final) are added to this complex and incubated 30 min at 22° C. Detection complex (+/−inhibitors) is then added to the CD28 coated wells for 25 min at 22° C., washed 5 times with TBS, developed with the colorimetric substrate pNPP (Pierce #34045) in diethanolamine/MgCl2 buffer (pH 9.5) and read at 405 nm. The inhibition constant (IC50) is calculated by subtracting background binding and comparing to uninhibited (DMSO alone) controls. The inhibition constant represents the concentration of test compound required to achieve 50% inhibition.
Background: ELISA stands for enzyme-linked immunosorbent assay.
`Cn1ncc2c3[nH]n(-c4ccc(C(=O)Nc5ccc(CCO)cc5)c(F)c4)c(=O)c3c(-c3cccc(C(F)(F)F)c3)nc21`: the IC50 was found to be 64 nM.
Then `Cn1ncc2c3[nH]n(-c4ccc(F)c(C(=O)Nc5ccc(O)cc5)c4)c(=O)c3c(-c3cccc(C(F)(F)F)c3)nc21`, with 280 nM; and `COC(=O)c1cccc(NC(=O)c2ccc(-n3[nH]c4c(c(-c5cccc(C(F)(F)F)c5)nc5c4cnn5C)c3=O)cc2)c1` [Example 42], with 73 nM; and `Cn1ncc2c3[nH]n(-c4ccc(C(=O)Nc5ccc(O)cc5)c(F)c4)c(=O)c3c(-c3cccc(C(F)(F)F)c3)nc21`, with 31 nM.
On to `CC(O)c1cccc(NC(=O)c2ccc(-n3[nH]c4c(c(-c5cccc(C(F)(F)F)c5)nc5c4cnn5C)c3=O)cc2Cl)c1` (stereo not drawn), for which the IC50 came to 550 nM.
Then `Cn1ncc2c3[nH]n(-c4ccc(C(=O)N5CCOCC5)c(Cl)c4)c(=O)c3c(-c3cccc(C(F)(F)F)c3)nc21`, with 84 nM.

The values above are taken from patent publication US6734190B2, “Dihydrodipyrazolopyridinylbenzamide and -sulfonamide inhibitors of B7-1” (Wyeth, priority 2002, dated 2004).
